Experimental findings from ChEMBL document CHEMBL4680247, “Design, synthesis, and biological evaluation of 3-amino-2-oxazolidinone derivatives as potent quorum-sensing inhibitors of Pseudomonas aeruginosa PAO1” (Eur J Med Chem, 2020) are described below.

Test [1] deals with Pseudomonas aeruginosa. Conditions: PAO1, time 18.0 hrs.
Test [2] has as its system Pseudomonas aeruginosa. Conditions: PAO1, time 2.0 day.

Broadly, the MIC is the lowest concentration found to suppress growth. COLISTIN SULFATE: the MIC against Pseudomonas aeruginosa [1] amounted to 4 µg/mL; against Pseudomonas aeruginosa [2] it was 64 µg/mL.
